Values of other authors as cited in PMC9013686, “Inter-individual variation in chlorpyrifos toxicokinetics characterized by physiologically based kinetic (PBK) and Monte Carlo simulation comparing human liver microsome and Supersome™ cytochromes P450 (CYP)-specific kinetic data as model input” (Archives of Toxicology, 2022).

What was measured:
[1] = ref Heilmair et al. ([2008]); cited from earlier work
[2] = test system: RBC AChE; design: method as in Eyer et al. ([2009]); conditions: corrected for unbound fraction in plasma of 0.15; ref Eyer et al. ([2009]); cited from earlier work

CCOP(=O)(OCC)Oc1nc(Cl)c(Cl)cc1Cl [CPO, chlorpyrifos-oxon]
unbound fraction in plasma (fuCPOin vivo(plasma)) [1]: 0.15 | IC50 [2]: 3.1 nM
